According to patent publication US8975259B2, “Compositions and methods for inhibiting G protein signaling” (University of Rochester, priority 2007, dated 2015):

System: human μ opioid receptor (hMOR-CHO cells)
Assay: Total inositol phosphate assay in hMOR-CHO cells
Assay type: cell-based
Protocol: Chinese hamster ovary (CHO) cells stably expressing either the human κ (hKOR-CHO), δ (hDOR-CHO)(L. Toll, Stanford Research Institute, Palo Alto, Calif.) or μ (hMOR-CHO)(G. Uhl, National Institute on Drug Abuse, Baltimore, Md.) opioid receptor were used in the experiments. Cells in 6-well plates were labeled by adding 4 μCi of [^3H]inositol for 24 hr in inositol-free F-10 media, without serum. After labeling, LiCl was added directly to the labeling media at a final concentration of 10 mM. Ligands or peptides were added at the same time. The final volume of each well was 1 mL. The plates were put back in to the incubator at 37° C. for 30 min after which time the medium was aspirated and the plates were washed twice with 1× PBS. Ice-cold 50 mM formic acid, 1 mL, was added to the plates which were placed in the cold room at 4° C. for 30 min. After the incubation, the contents of the plates were applied to Dowex AG1-X8 columns and allowed to flow all the way through the column. The columns were washed, twice each, with 50 and 100 mM formic acid, for a total of four washes, followed by elution of the IP-containing fraction with 3 mL of 1.2 M ammonium formate/0.1 M formic acid. The eluted fraction was mixed with Scintisafe scintillation fluid, for high salt, and counted. The data are represented as the fold increase over control in total inositol phospates. […]

Compound: CN1CC[C@]23c4c5ccc(O)c4O[C@H]2[C@@H](O)C=C[C@H]3[C@H]1C5.O=S(=O)(O)O [morphine, Morphine sulfate]
- increase in total IP compared to control: 3 fold
